According to patent publication US10000498B2, “Selective proton coupled folate transporter and folate receptor, and GARFTase inhibitor compounds and methods of using the same” (Duquesne University of the Holy Spirit, priority 2008, dated 2018):

These molecules were tested on R2-hPCFT#4 cells (hPCFT-expressing R2 CHO) (assay: cells). Conditions: Cricetulus griseus, 96 h, read-out: Growth inhibition 50% inhibitory concentration, R2-hPCFT#4.
With `Nc1nc2c(c(=O)[nH]1)C[C@@H](CCc1ccc(C(=O)N[C@@H](CCC(=O)O)C(=O)O)cc1)CN2` [Lometrexol, lometrexol, reference compound] the IC50 was 183 ± 12.6 nM. Molecule `Nc1nc2[nH]c(CCCCc3ccc(C(=O)N[C@@H](CCC(=O)O)C(=O)O)s3)cc2c(=O)[nH]1` [AAG154353, (S)-2-({5-[4-(2-amino-4-oxo-4,7-dihydro-3H-pyrrolo[2,3-d]pyrimidin-6-yl)-butyl]thiophene-2-carbonyl}-amino)-pentanedioic acid] has an IC50 of 48.2 ± 17.8 nM. With `Nc1nc2[nH]cc(CCc3ccc(C(=O)N[C@@H](CCC(=O)O)C(=O)O)cc3)c2c(=O)[nH]1` [Pemetrexed, pemetrexed] the IC50 was 27.5 ± 3.26 nM. `CN(Cc1cnc2nc(N)nc(N)c2n1)c1ccc(C(=O)N[C@@H](CCC(=O)O)C(=O)O)cc1` [Methotrexate, methotrexate] showed an IC50 of 143 ± 29.4 nM. With `Cc1nc2ccc(CN(C)c3ccc(C(=O)N[C@@H](CCC(=O)O)C(=O)O)s3)cc2c(=O)[nH]1` [Raltitrexed, raltitrexed] the IC50 was 63.8 ± 3.26 nM.
